Tests used:
[1] = molecular target: T1, Glutamate NMDA receptor; Grin1/Grin2b (Rattus norvegicus) (UniProt P35439+Q00960); assay: Positive allosteric modulation of recombinant rat GluN1/GluN2B receptor expressed in xenopus laevis oocyte assessed as potentiation of glutamate and glycine-induced current response at 30 uM at holding potential -40mV by two electrode voltage clamp method relative to control
Summary of the method: (§1)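 Two-electrode voltage clamp at -40 mV, 23°C, pH 7.4 Ba²⁺ recording solution, on Xenopus oocytes expressing rat NMDA receptors. Currents were evoked by 100 µM glutamate plus 30 µM glycine, with compound co-applied (DMSO 0.05–0.5% final). […] Each compound used at least 4 oocytes from at least 2 frogs.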

Protein sequences, listed by entry. Tags and fused reporters are not part of them.
UniProt Q00960, whole entry, looked up: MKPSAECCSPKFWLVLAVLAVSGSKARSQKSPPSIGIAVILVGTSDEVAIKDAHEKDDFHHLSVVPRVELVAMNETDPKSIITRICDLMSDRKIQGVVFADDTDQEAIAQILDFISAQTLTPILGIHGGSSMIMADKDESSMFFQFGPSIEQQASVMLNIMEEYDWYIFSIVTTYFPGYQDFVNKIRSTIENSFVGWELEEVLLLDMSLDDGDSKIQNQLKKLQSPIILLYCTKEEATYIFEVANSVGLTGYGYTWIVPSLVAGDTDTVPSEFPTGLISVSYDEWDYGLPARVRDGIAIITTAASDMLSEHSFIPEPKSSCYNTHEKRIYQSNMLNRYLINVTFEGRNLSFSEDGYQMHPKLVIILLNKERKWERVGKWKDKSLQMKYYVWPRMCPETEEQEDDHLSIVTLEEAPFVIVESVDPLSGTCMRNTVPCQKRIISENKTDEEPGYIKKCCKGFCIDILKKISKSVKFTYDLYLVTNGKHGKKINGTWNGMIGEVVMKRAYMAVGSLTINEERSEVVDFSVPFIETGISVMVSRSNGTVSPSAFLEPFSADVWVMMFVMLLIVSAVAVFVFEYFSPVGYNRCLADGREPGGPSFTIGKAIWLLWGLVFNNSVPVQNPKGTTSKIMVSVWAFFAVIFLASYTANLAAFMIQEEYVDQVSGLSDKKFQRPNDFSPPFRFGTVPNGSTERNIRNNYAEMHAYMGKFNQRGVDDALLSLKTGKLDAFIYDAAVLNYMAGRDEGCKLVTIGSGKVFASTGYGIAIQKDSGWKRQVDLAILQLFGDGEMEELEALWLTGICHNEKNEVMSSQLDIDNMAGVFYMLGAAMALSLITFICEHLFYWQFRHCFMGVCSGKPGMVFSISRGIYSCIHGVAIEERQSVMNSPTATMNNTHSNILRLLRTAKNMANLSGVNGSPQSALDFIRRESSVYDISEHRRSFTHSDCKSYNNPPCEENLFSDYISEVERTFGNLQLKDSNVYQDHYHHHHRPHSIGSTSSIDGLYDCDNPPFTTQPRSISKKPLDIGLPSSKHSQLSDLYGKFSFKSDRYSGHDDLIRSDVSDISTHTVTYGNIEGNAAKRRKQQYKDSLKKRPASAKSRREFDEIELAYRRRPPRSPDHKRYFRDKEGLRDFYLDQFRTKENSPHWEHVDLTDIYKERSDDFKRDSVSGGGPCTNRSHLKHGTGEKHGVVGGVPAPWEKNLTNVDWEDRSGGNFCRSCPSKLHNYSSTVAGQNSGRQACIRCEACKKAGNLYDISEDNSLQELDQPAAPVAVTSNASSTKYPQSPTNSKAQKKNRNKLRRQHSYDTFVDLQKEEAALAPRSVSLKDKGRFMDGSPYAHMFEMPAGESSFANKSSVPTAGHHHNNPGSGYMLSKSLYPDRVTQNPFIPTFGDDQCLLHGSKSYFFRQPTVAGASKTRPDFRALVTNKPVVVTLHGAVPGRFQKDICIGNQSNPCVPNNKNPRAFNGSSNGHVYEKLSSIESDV

[2] = molecular target: T1, Glutamate NMDA receptor; Grin1/Grin2b (Rattus norvegicus); assay: Positive allosteric modulation of recombinant rat GluN1/GluN2B receptor expressed in xenopus laevis oocyte assessed as potentiation of glutamate and glycine-induced current response at 10 uM at holding potential -40mV by two electrode voltage clamp method relative to control; settings: 30 uM, in the assay text read “at 30 uM” for “at 10 uM”; summary of the method: as §1

Emax [2] [%]	Compound	Activity [1] [%]	Emax [1] [%]
–	COc1ccc(OCC2c3ccc(OC)cc3CCN2C(=O)c2cccc(Cl)c2)cc1 (centres undefined)	90	–
333	COc1ccc(OCC2c3ccc(OCC(C)C)cc3CCN2C(=O)c2cccc(Cl)c2)cc1 (centres undefined)	–	–
–	COc1ccc(OCC2c3ccc(OC(C)C)cc3CCN2C(=O)c2cccc(C(F)(F)F)c2)cc1 (centres undefined)	196	206
